The list shows a part of the results, in another mix than the full data. Calls of active or inactive are those of the source. Rule as the data show it: active = fold change above about 3.3; inconclusive = no clear call, values can overlap the other calls; inactive = below that.
Assay: NF-kB upregulation, human neuronal cells – cell-based, HTS, primary screen (AID 1239)
Conditions: NF-kB reporter expression, at 12.5 µM, active compounds read high

SMILES | fold change
CN1CCN(CCOC(=O)C(O)(c2ccccc2)c2ccccc2)CC1 | inactive: 0.88
COc1ccc(NC2CCN(C(=O)OC(C)(C)C)CC2)cc1 | inactive: 1.26
O=C(NCC1(N2CCOCC2)CCCCC1)c1cc(=O)[nH]c2ccccc12 | inactive: 1.2
O=C(NCC1(N2CCCCC2)CCCCC1)c1cccc([N+](=O)[O-])c1 | inactive: 0.91
N#CC1(Nc2ccccc2)CCN(CCc2ccccc2)CC1 | inactive: 1.33
CN(C)c1cccc(C(=O)NCC2(N3CCCCC3)CCCCC2)c1 | inactive: 0.99
COc1ccc(CN(CCCl)CCCl)cc1Cl | inactive: 1.27
CC(C)c1ccc(NC2CCN(C(=O)OC(C)(C)C)CC2)cc1 | inactive: 1.27
O=C(NCC1(N2CCOCC2)CCCCC1)c1cc2ccccc2o1 | inactive: 0.91
CCOC(=O)N1CCC(Nc2ccc(OC)cc2)CC1 | inactive: 0.89
O=C(OC1CN2CCC1CC2)C1c2ccccc2Oc2ccccc21 (stereo not given) | inactive: 1.31
COc1ccc(C(=O)NCC2(N3CCCCC3)CCCCC2)c(OC)c1OC | inactive: 1.09
COc1ccc(NC2CCN(CCc3ccccc3)CC2)c(OC)c1 | inactive: 0.86
CCN1CCC(Nc2cccc(F)c2)CC1 | inactive: 1.17
CN(C)c1ccc(C(=O)NCC2(N3CCCCC3)CCCCC2)cc1 | inactive: 0.89
Fc1ccccc1NC1CCN(Cc2ccccc2)CC1 | inactive: 1.06
CCC(CO)(C(=O)OC1CN2CCC1CC2)c1ccccc1 (stereo not given) | inactive: 0.96
COc1cc(OC)cc(C(=O)NCC2(N3CCOCC3)CCCCC2)c1 | inactive: 1.05
CCOc1ncccc1C(=O)NCC1(N2CCOCC2)CCCCC1 | inactive: 1.06
CC(C)(C)OC(=O)N1CCC(Nc2ccccc2)CC1 | inactive: 1.19
N/C(=N\O)c1c(N)no[n+]1[O-] | inactive: 1.11
O=C(OC1CN2CCC1CC2)C1c2ccccc2C=Cc2ccccc21 (stereo not given) | inactive: 1.19
COc1ccc(C(=O)NCC2(N3CCOCC3)CCCCC2)cc1OC | inactive: 1.09
c1ccc(CN2CCC(Nc3ccccc3)CC2)cc1 | inactive: 1.11
N#Cc1ccc(C(=O)NCC2(N3CCCCC3)CCCCC2)cc1 | inactive: 0.82

— PubChem BioAssay AID1239 (SRMLSC, 2008)
